This is an account of results in publication PMC4624480 (Biochemistry, 2015).

The chains behind the UniProt entries cited, without tags or fusion partners. Where a name states a change or a piece, a line headed by the entry shows the natural chain unless it says otherwise.
UniProt P37353: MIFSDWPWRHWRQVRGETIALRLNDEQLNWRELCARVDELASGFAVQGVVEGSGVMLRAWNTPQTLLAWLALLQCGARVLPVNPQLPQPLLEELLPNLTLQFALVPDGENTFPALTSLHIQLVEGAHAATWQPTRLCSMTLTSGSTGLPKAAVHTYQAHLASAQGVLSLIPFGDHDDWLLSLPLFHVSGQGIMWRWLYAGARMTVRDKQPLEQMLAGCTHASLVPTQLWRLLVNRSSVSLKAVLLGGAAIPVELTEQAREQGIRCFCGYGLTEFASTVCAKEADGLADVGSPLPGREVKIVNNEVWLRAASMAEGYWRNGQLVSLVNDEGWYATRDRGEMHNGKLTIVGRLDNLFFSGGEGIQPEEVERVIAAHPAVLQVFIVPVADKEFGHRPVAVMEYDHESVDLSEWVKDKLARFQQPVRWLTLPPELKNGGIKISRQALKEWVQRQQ

The assay has as its target E. coli MenE (ecMenE) (Escherichia coli, UniProt P37353). It counts as biochemical.

The IC50 is the concentration that gives 50% inhibition. Turning to MSB-AMS [compound 2], the IC50 is above 100 µM.
